# In ChEMBL document CHEMBL1153227, “2,3,5-Trisubstituted pyridines as selective AKT inhibitors. Part II: Improved drug-like properties and kinase selectivity from azaindazoles” (Bioorg Med Chem Lett, 2010):
# Protein sequences, listed by entry. Tags and fused reporters are not part of them.
# UniProt P11712, whole entry: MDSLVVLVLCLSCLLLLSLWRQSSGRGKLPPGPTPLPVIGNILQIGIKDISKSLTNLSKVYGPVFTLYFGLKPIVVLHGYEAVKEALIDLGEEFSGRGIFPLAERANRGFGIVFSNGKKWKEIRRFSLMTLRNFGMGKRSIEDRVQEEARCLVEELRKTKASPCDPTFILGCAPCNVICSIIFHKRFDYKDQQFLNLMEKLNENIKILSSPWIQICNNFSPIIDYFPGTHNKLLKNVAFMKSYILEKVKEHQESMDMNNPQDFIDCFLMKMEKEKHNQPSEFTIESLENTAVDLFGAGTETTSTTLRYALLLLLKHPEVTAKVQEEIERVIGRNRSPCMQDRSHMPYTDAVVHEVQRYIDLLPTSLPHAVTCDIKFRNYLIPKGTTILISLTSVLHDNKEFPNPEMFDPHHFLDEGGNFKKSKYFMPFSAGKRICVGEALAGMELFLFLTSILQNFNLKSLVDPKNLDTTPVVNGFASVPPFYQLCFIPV
# Target: Cytochrome P450 2C9 (Homo sapiens, UniProt P11712)
smiles,measurement,value
Cc1n[nH]c2ccc(-c3cc(OC[C@@H](N)Cc4c[nH]c5ccccc45)cnc3-c3ccoc3)cc12,IC50,500 nM
